## Measured affinities in a library of Ab-14 light chain variants

Values reported by Engelhart et al. 2022, doi:10.1038/s41597-022-01779-4 (FLAb copy).

Antigen: PDVDLGDISGINAS, a 14-residue peptide of the SARS-CoV-2 spike HR2 region.

Ab-14 is the parent antibody, in scFv form: VH, then a (GGGGS)3 linker, then VL. The heavy chain is unchanged in all variants.
VH: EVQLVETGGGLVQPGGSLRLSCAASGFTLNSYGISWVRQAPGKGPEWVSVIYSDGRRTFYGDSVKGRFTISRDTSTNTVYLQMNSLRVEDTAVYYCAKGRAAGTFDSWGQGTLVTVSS
VL: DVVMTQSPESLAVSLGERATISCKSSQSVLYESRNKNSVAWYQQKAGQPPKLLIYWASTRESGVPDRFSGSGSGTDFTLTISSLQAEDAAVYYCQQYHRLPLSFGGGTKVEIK

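The parent was found by panning a naive human phage display library on the peptide. The library (AAYL50) carries one to three amino acid substitutions per variant, with no insertions or deletions. The scFvs were displayed on barcoded MATa yeast, the peptide on MATalpha yeast. Pairs that bind mate more often; barcode pairs of the diploids are counted by sequencing. A regression on co-assayed BCL2-family reference pairs converts the normalised counts of each replicate to an apparent Kd. Mating was done three times.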

Positions count from residue 1 of the parent VL; S33W puts W in place of S. Every variant below is changed at S33 of the VL (sequential numbering). Scale: log10 of Kd in nM, estimated from mating counts; low values are strong binders. The mean shown is taken over the replicates in which the pair was detected. An entry "ND" has no value in the source: the pair was not observed among the diploids in that replicate. This suggests poor binding but is not conclusive. In this assay the parent's reference entry averaged 0.65; its copy inside this library read 1.68. Three control strains display no target. For library AAYL50, 18% of the pairings with them gave a signal, with a median of 4.19 and one signal in twenty below 2.99, so weak values seen in few replicates may be background. The control count says in how many pairings with the empty strains this scFv gave a signal.

The variant S33W R60N Y97A showed 5.42, ND, ND (controls 1 of 9). With V29H S33R S58D the result was 2.16, 2.00, 2.11 (mean 2.09; controls 3 of 9). The variant S33N A57Y L102V showed ND, ND, ND (controls 0 of 9). The variant S33I S38L T59V showed 6.27, 3.81, 4.94 (mean 5.01; controls 7 of 9). The variant S33F E61N showed 2.67, 2.56, 3.02 (mean 2.75; controls 2 of 9). For S33R N35P E61M, the assay gave 2.60, 2.70, 2.27 (mean 2.53; controls 0 of 9).

For S28K S33T Q95V, the assay gave ND, ND, ND (controls 0 of 9). For L30G S33R T59G, the assay gave 3.38, 5.45, 4.56 (mean 4.46; controls 3 of 9). The variant S33R Q96D L100G gave ND, ND, ND (controls 0 of 9). The variant S33V S103D showed 3.79, ND, ND (controls 5 of 9). The variant S33A W56D R60L gave -0.23, 0.14, -0.10 (mean -0.06; controls 4 of 9). For S28V S33N V39H, the assay gave 3.10, ND, ND (controls 2 of 9).

With Y31A S33N Q96T the result was 1.26, 1.42, 1.42 (mean 1.37; controls 8 of 9). The variant K24Y S33M E61V gave ND, 3.18, ND (controls 2 of 9). For Q27F L30K S33I, the assay gave 1.51, 1.93, 1.73 (mean 1.72; controls 1 of 9). With S33W T59C P101T the result was 2.62, 1.94, 2.24 (mean 2.27; controls 1 of 9). With E32M S33M N35H the result was ND, ND, ND (controls 0 of 9). The variant S28T Y31T S33V showed 0.96, 1.08, 1.05 (mean 1.03; controls 4 of 9).

The variant S33M L102H gave 0.99, 1.37, 0.99 (mean 1.12; controls 1 of 9). The variant S25I S33Y Y97I gave 0.29, 0.55, 0.28 (mean 0.38; controls 2 of 9). For S33H R34T Y97A, the assay gave ND, ND, ND (controls 1 of 9). The variant Y31C S33V gave ND, ND, ND (controls 0 of 9). With Y31T S33I S58W the result was 2.87, 2.74, ND (mean 2.81; controls 1 of 9). The variant V29C S33Q S58I gave 4.46, 3.98, 4.82 (mean 4.42; controls 2 of 9).

With S33R Q96K the result was 5.65, 4.92, ND (mean 5.28; controls 0 of 9). The variant S33E W56E A57V showed -0.13, 0.15, -0.03 (mean -0.01; controls 2 of 9). The variant S33Y gave ND, ND, ND (controls 0 of 9). With S33G V39H H98Q the result was ND, ND, ND (controls 2 of 9). With S33P P101E L102D the result was ND, ND, ND (controls 2 of 9). The variant S33V T59Y Y97S gave ND, 3.81, 3.07 (mean 3.44; controls 0 of 9).

With S33W T59N S62T the result was 1.80, 2.44, 2.37 (mean 2.20; controls 0 of 9). The variant S33G S38V showed ND, 3.59, ND (controls 0 of 9). With S28C S33Y S62M the result was 3.04, ND, ND (controls 0 of 9). With S33A N37Q E61L the result was 2.26, 1.96, 2.26 (mean 2.16; controls 1 of 9). For S33M R34T S103H, the assay gave 2.06, 2.00, 2.48 (mean 2.18; controls 5 of 9). For S33Y S62I H98T, the assay gave 1.88, 1.81, 1.90 (mean 1.86; controls 6 of 9).

The variant S33W Q96V showed ND, ND, ND (controls 0 of 9). For V29T S33E S62E, the assay gave 0.33, 0.57, 0.46 (mean 0.46; controls 5 of 9). With S33I R34C A57D the result was ND, 4.33, 3.40 (mean 3.87; controls 5 of 9). For Y31H S33E Y97K, the assay gave 0.99, 1.14, 1.02 (mean 1.05; controls 1 of 9).